According to ChEMBL document CHEMBL4513216, “Probing the Open Global Health Chemical Diversity Library for Multistage-Active Starting Points for Next-Generation Antimalarials” (ACS Infect Dis, 2020):

System: HepG2
Test: Toxicity liver stage against HepG2, at 10uM
Assay type: cell-based
Design: test concentration 10 uM, cell line HepG2-A16-CD81EGFP
Conditions: human, hepg2, 10 µM
Summary of the method: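 Uninfected HepG2-A16-CD81EGFP cells, 3 × 10^3 per well, 1536-well, plated on prespotted compound at 10 μM final, parasite-free screening media added to match infected plates; puromycin 10 μM positive, DMSO 0.5% negative; run in parallel with 48 h PbLuc assay at 37 °C, 5% CO2; viability by CellTiter-Glo luminescence, normalized to controls.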

Structure (SMILES)	INHIBITION
Cc1cccc(NC2CCN(Cc3nc(C)c(C)o3)CC2)c1	-6.03%
COc1ccc2[nH]c(C(=O)NCC3(N)CCCCC3)cc2c1	-1.31%
COc1ccccc1NC1CCN(Cc2ccc(Br)s2)CC1	-7.89%
COc1ccccc1NC1CCN(Cc2nc(C)c(C)s2)CC1	12.9%
COc1ccc(OC)c(NC2CCN(C)CC2)c1	-137%
COc1ccc(OC)c(NC2CCN(Cc3ccc(Br)cc3)CC2)c1	12.6%
COc1cc(NC2CCN(C(C)c3nnc(C)o3)CC2)cc(OC)c1 (stereo not drawn)	3.23%
CC1(C)CN(C2(CNC(=O)c3csnn3)CCCCC2)CCO1	12%

This is a selection: effects in other tests are not listed, and their absence says nothing.
